Measured values reported in PubChem BioAssay AID684 (PCMD, 2007).
The entries are a selection whose mix differs from that of the whole data set. Calls of active or inactive are those of the source. Cut-off read from the data, not from the text of the source: active = inhibition above about 20% (passing the limit was not always enough); inactive = the rest.

Sequences of proteins named here, by UniProt entry; tags and fusion partners are left off. Residues count along the entry.
UniProt P00748, 20-372 limits assumed: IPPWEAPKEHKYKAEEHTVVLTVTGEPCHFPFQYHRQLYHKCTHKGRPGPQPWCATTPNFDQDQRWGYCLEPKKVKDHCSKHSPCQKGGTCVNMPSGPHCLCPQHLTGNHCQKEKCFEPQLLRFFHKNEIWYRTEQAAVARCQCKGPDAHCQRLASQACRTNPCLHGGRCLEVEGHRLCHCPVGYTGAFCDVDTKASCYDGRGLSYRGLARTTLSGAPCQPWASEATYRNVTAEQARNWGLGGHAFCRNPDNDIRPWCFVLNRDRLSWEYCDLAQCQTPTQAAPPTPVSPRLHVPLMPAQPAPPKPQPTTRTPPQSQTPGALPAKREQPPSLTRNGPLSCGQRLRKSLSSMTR
UniProt P00748, 373-615 limits assumed: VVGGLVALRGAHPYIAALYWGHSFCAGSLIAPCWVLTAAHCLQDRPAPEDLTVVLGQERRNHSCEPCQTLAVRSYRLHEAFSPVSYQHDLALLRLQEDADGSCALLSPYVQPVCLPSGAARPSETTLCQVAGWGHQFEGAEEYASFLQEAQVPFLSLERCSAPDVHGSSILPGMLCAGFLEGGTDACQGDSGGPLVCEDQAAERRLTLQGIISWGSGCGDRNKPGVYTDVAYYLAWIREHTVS

Biological target: Coagulation factor XII (Homo sapiens) (UniProt P00748)
Assay: human factor XIIa inhibitors, primary screen, biochemical, pooled compound mixtures, fluorogenic substrate (AID 684);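 note: 0% = enzyme without compound and 100% = no enzyme blank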
Conditions: purified FXIIa, at 5 µM, active compounds read high

Q: With `COc1ccccc1OP(C)(=O)Nc1ccc(C)cc1` (stereo not drawn) as the molecule, how does the inhibition read?
A: The inhibition was inactive: 8.72%.

Q: `Cc1ccc(NP(C)(=O)Oc2ccccc2)c(C)c1` (stereo not drawn) was tested. Which inhibition did it give?
A: Its inhibition is inactive: -5.22%.

Q: With `CP(=S)(Nn1cnnc1)Oc1ccccc1` (stereo not drawn) as the molecule, how does the inhibition read?
A: The inhibition was inactive: 10.2%.

Q: `CCOP(C)(=S)SCC(=O)NC(C)C(=O)O` (stereo not drawn) was tested. Which inhibition did it give?
A: The inhibition was inactive: -15.1%.

Q: For `CP(=O)(NC(=O)Nc1ccccc1)Oc1ccccc1` (stereo not drawn), which inhibition is on record?
A: Its inhibition is inactive: -0.07%.

Q: Which inhibition does the source give for `Cc1nc2ccc3ccccc3c2s1.O=[N+]([O-])c1cc([N+](=O)[O-])c(O)c([N+](=O)[O-])c1` here?
A: Its inhibition is inactive: -11.9%.

Q: `Cc1ccc(C)c(NP(C)(=O)Oc2ccccc2)c1` (stereo not drawn) was tested. Which inhibition did it give?
A: The inhibition was inactive: 7.45%.

Q: For `CP(=O)(Nc1ccccc1F)Oc1ccccc1` (stereo not drawn), which inhibition is on record?
A: The inhibition was inactive: 9.67%.

Q: For `CN(C)CCOC(=O)C(O)(c1ccccc1)C1CCCCC1` (stereo not drawn), which inhibition is on record?
A: Its inhibition is inactive: 5.82%.

Q: With `Cc1ccccc1NP(C)(=O)Nc1ccccc1C` as the molecule, how does the inhibition read?
A: The inhibition was inactive: 1.26%.

Q: For `CP(=O)(Nc1ccc2c(c1)OCCO2)Oc1ccccc1` (stereo not drawn), which inhibition is on record?
A: Its inhibition is inactive: -9.66%.

Q: With `CCOP(C)(=S)SCC(=O)NC(C)(CC)C(=O)O` (stereo not drawn) as the molecule, how does the inhibition read?
A: Its inhibition is inactive: 15.7%.

Q: `CP(=O)(Oc1ccccc1)N1CCOC1=O` (stereo not drawn) was tested. Which inhibition did it give?
A: The inhibition was inactive: 1.27%.

Q: `COc1ccccc1OP(C)(=O)Nc1c(C)n(C)n(-c2ccccc2)c1=O` (stereo not drawn) was tested. Which inhibition did it give?
A: Its inhibition is inactive: 10.8%.

Q: `CCN(CC)CC(O)COC(=O)C(O)(c1ccccc1)C1CCCCC1` (stereo not drawn) was tested. Which inhibition did it give?
A: The inhibition was inactive: 11.4%.

Q: How did the inhibition turn out when `Cc1nc2ccc3ccccc3c2o1.O=[N+]([O-])c1cc([N+](=O)[O-])c(O)c([N+](=O)[O-])c1` was run?
A: Its inhibition is inactive: 5.94%.

Q: `COc1ccccc1OP(C)(=O)Nc1ccc(C)c(C)c1` (stereo not drawn) was tested. Which inhibition did it give?
A: The inhibition was inactive: -0.19%.

Q: `CP(=O)(Nc1ccccn1)Oc1ccccc1` (stereo not drawn) was tested. Which inhibition did it give?
A: The inhibition was inactive: 2.86%.
